Permeability data for macrocyclic peptides

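Conditions beyond the assay type are not listed; see the original paper. The list need not hold all peptides of the study. Peptides that the database sets to -10, its floor, are left out.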

PAMPA is the parallel artificial membrane permeability assay, which has no cells and reads passive diffusion.
Permeability is in 10^-6 cm/s, converted from the database's log10 values; higher is more permeable.

CC(C)C[C@@H]1NC(=O)[C@H]2CCCN2C(=O)[C@H](CC(C)C)N(C)C(=O)[C@H](CC(C)C)N(C)C(=O)[C@H](C)N(C)C(=O)[C@H]2CCCN2C(=O)[C@H](Cc2ccccc2)NC1=O has PAMPA 2 × 10^-6 cm/s. CC(C)C[C@@H]1NC(=O)[C@@H](C)NC(=O)[C@@H]2CCCN2C(=O)[C@H](Cc2ccccc2)NC(=O)[C@H](CC(C)C)N(C)C(=O)[C@@H]2CCCN2C(=O)[C@H](CC(C)C)N(C)C1=O has PAMPA 1.5 × 10^-6 cm/s. The entry for CC(C)C[C@@H]1C(=O)N2CCC[C@H]2C(=O)N(C)[C@H](CC(C)C)C(=O)N[C@@H](Cc2ccccc2)C(=O)N[C@@H](C)C(=O)N[C@H](CC(C)C)C(=O)N1C lists PAMPA 3.9 × 10^-6 cm/s. For CCCN1CC(=O)N[C@@H](CC(C)C)C(=O)N[C@@H](Cc2ccccc2)CC(=O)N2CCC[C@@H]2C(=O)N[C@@H](CC(C)C)C(=O)N[C@@H](Cc2ccccc2)C(=O)N2CCC[C@@H]2C1=O the data give PAMPA 0.58 × 10^-6 cm/s.

The entry for CC(C)C[C@H]1NC(=O)[C@@H](C)N(C)C(=O)[C@@H]2CCCN2C(=O)[C@H](Cc2ccccc2)NC(=O)[C@H](CC(C)C)N(C)C(=O)[C@@H]2CCCN2C(=O)[C@H](CC(C)C)N(C)C1=O lists PAMPA 2.9 × 10^-6 cm/s. CC(C)C[C@@H]1C(=O)N(C)[C@H](CC(C)C)C(=O)N2CCC[C@@H]2C(=O)N(C)[C@@H](CC(C)C)C(=O)N[C@@H](Cc2ccccc2)C(=O)N2CCC[C@H]2C(=O)N[C@@H](C)C(=O)N1C has PAMPA 3.5 × 10^-6 cm/s. The entry for CC(C)C[C@@H]1NC(=O)[C@H](C)NC(=O)[C@H](Cc2ccccc2)NC(=O)[C@H](CC(C)C)NC(=O)[C@@H]2CCCN2C(=O)C[C@H](Cc2ccccc2)NC1=O lists PAMPA 1.1 × 10^-6 cm/s. The entry for CC(C)C[C@H]1NC(=O)[C@@H](C)N(C)C(=O)[C@H](Cc2ccccc2)NC(=O)CN(Cc2ccccc2)C(=O)[C@H]2CCCN2C(=O)C[C@H](Cc2ccccc2)NC1=O lists PAMPA 2.6 × 10^-6 cm/s.

Listed for CC(C)C[C@@H]1NC(=O)C[C@H](Cc2ccccc2)NC(=O)[C@H]2CCCN2C(=O)[C@H](Cc2ccccc2)NC(=O)[C@H](CC(C)C)N(C)C(=O)[C@@H]2CCCN2C(=O)[C@H](CC(C)C)NC1=O: PAMPA 1.8 × 10^-6 cm/s. The entry for CC(C)C[C@H]1NC(=O)[C@@H]2CCCN2C(=O)CN(Cc2ccccc2)C(=O)[C@@H](CC(C)C)NC(=O)[C@@H](C)NC(=O)[C@@H]2CCCN2C(=O)[C@H](Cc2ccccc2)NC1=O lists PAMPA 0.36 × 10^-6 cm/s. CC(C)C[C@@H]1NC(=O)[C@@H](C)NC(=O)[C@@H]2CCCN2C(=O)[C@H](Cc2ccccc2)NC(=O)CN(Cc2ccccc2)C(=O)[C@@H]2CCCN2C(=O)[C@@H](CC(C)C)N(C)C1=O is reported with PAMPA 0.85 × 10^-6 cm/s. CC(C)C[C@H]1NC(=O)[C@H](CC(C)C)N(C)C(=O)[C@@H](C)NC(=O)[C@@H]2CCCN2C(=O)[C@H](Cc2ccccc2)NC(=O)[C@H](CC(C)C)N(C)C(=O)[C@@H]2CCCN2C1=O has PAMPA 2.4 × 10^-6 cm/s.

CC(C)C[C@@H]1C(=O)N(Cc2ccccc2)CC(=O)N2CCC[C@H]2C(=O)N(C)[C@@H](CC(C)C)C(=O)N[C@@H](Cc2ccccc2)C(=O)N2CCC[C@@H]2C(=O)N[C@@H](C)C(=O)N1C is reported with PAMPA 2.8 × 10^-6 cm/s. CC(C)C[C@@H]1C(=O)N[C@@H](Cc2ccccc2)C(=O)N2CCC[C@H]2C(=O)N(C)[C@@H](C)C(=O)N(C)[C@H](CC(C)C)C(=O)N(C)[C@@H](CC(C)C)C(=O)N2CCC[C@@H]2C(=O)N1C is reported with PAMPA 6.3 × 10^-6 cm/s. The entry for CCCN1CC(=O)N(C)[C@H](CC(C)C)C(=O)N[C@@H](Cc2ccccc2)CC(=O)N2CCC[C@@H]2C(=O)N[C@H](CC(C)C)C(=O)N[C@@H](Cc2ccccc2)C(=O)N2CCC[C@@H]2C1=O lists PAMPA 1.6 × 10^-6 cm/s. For CC(C)C[C@@H]1C(=O)N[C@@H](Cc2ccccc2)C(=O)N[C@@H](C)C(=O)N(C)[C@@H](CC(C)C)C(=O)N[C@H](CC(C)C)C(=O)N2CCC[C@H]2C(=O)N1C the data give PAMPA 4.5 × 10^-6 cm/s.

For CC(C)C[C@@H]1NC(=O)[C@@H]2CCCN2C(=O)[C@@H](CC(C)C)N(C)C(=O)[C@H](CC(C)C)NC(=O)[C@H](C)N(C)C(=O)[C@@H]2CCCN2C(=O)[C@H](Cc2ccccc2)NC1=O the data give PAMPA 2.1 × 10^-6 cm/s. CC(C)C[C@H]1NC(=O)[C@@H](C)N(C)C(=O)[C@H]2CCCN2C(=O)[C@H](Cc2ccccc2)NC(=O)[C@H](CC(C)C)N(C)C(=O)[C@@H]2CCCN2C(=O)[C@H](CC(C)C)N(C)C1=O has PAMPA 7.2 × 10^-6 cm/s. For CC(C)C[C@@H]1C(=O)N(C)[C@@H](CC(C)C)C(=O)N2CCC[C@@H]2C(=O)N(C)[C@H](CC(C)C)C(=O)N[C@@H](Cc2ccccc2)C(=O)N[C@@H](Cc2ccccc2)CC(=O)N1C the data give PAMPA 4.2 × 10^-6 cm/s. Listed for CCCN1CC(=O)N(C)[C@@H](CC(C)C)C(=O)N[C@@H](CC(C)C)C(=O)N2CCC[C@@H]2C(=O)N[C@@H](CC(C)C)C(=O)N[C@@H](Cc2ccccc2)C(=O)N2CCC[C@@H]2C1=O: PAMPA 1.5 × 10^-6 cm/s.

The 2 highest values of PAMPA among the entries above:

| SMILES | PAMPA (10^-6 cm/s) |
|---|---|
| CC(C)C[C@H]1NC(=O)[C@@H](C)N(C)C(=O)[C@H]2CCCN2C(=O)[C@H](Cc2ccccc2)NC(=O)[C@H](CC(C)C)N(C)C(=O)[C@@H]2CCCN2C(=O)[C@H](CC(C)C)N(C)C1=O | 7.2 |
| CC(C)C[C@@H]1C(=O)N[C@@H](Cc2ccccc2)C(=O)N2CCC[C@H]2C(=O)N(C)[C@@H](C)C(=O)N(C)[C@H](CC(C)C)C(=O)N(C)[C@@H](CC(C)C)C(=O)N2CCC[C@@H]2C(=O)N1C | 6.3 |

Collected by the curators of CycPeptMPDB (Li et al. 2023) from Townsend et al. 2020, doi:10.26434/chemrxiv.13335941.v1.